Results: patent US8242152B2, “Use of 4-[(4-thiazolyl)phenoxy]alkoxy-benzamidine derivatives for the prophylaxis and treatment of osteoporosis” (Dong Wha Pharmaceutical Co., Ltd., priority 2001, dated 2012)

Test system: ovariectomized ddY mice
Test: Prophylactic effects in ovariectomized ddY mouse model (estrogen-deficient osteoporosis)
Format: in vivo
Settings: right femur; 10 mg/kg oral once a day for 6 weeks (F10, D10)
Text: The effects of a drug would be based on histomorphometric changes of trabecular bone and thickness cortical bone in this model.
The objective of present study is to observe the prophylactic effect of DW1350MSA, and administration of drug was initiated 3 days after ovariectomy for prophylaxis study. The results were compared to that of Fosamax, well-documented anti-osteoporotic agents.
Twenty-five female ddY mice (6-wk old upon receipt, SLC, Japan) were used after acclimatization for 7 days. Animals were allocated 5 per polycarbonate cage in a temperature (20-25° C.) and humidity (30-35%) controlled room. Light:dark cycle was 12 hr:12 hr and feed (Samyang, Korea) and water were supplied free to access. […]
Histomorphometric changes of tibia and femur were evaluated. All histomorphometric indices including trabecular bone volume (TBV, %), thickness of trabecular bone (Tbt), trabecular bone number (Tbn), and length of trabeculer bone (Tbl) were calculated using automated image analysis (analysis Image Processing; SIS, Germany) under magnification 200 (×200) of microscopy (Zeiss, Germany) in the epiphyseal regions of right tibia and/or femur. In addition, cortical bone thickness (Cbt) was measured in mid-shaft region of right tibia and femur. […] Tbt and Tbl were calculated as um levels, and Tbn were calculated as number/whole sectional part of epiphyseal regions levels. • C. […]

With NCCCC(O)(P(=O)(O)O)P(=O)(O)O [Fosamax, Alendronate] the “Ocn, osteoclast cell number” value was 9.40 ± 1.14 number.
